Source: patent US6887658B2, “Methods of identifying non-specific inhibitors of biomolecules” (Northwestern University, priority 2001, dated 2005)

Test: Dynamic light scattering (DLS)
Format: physicochemical

Which “particle formation in solution by DLS (autocorrelation function)” value does the source give for O=S(=O)(O)c1cccc2cccc(Nc3ccccc3)c12 [ANS, 8-anili-no-1-naphthalene-sulfonic acid] here?
Its value is “did not form particles in solution; also recorded: absence of particles”.

“Also recorded” adds a separate entry of the source.
